Several values for one entry are separate records, joined by “and”; a condition that tells them apart may be missing. Identical values can stand only once. Like-named read-outs stand apart in the source and are kept apart here.
What was measured:
[1] = test system: Marine ostracod crustacean luciferase; assay: Measurement of luminescence spectra of marine ostracod crustacean luciferins with luciferase; format: biochemical; details: Test Example 1
[2] = test system: Marine ostracod crustacean luciferase
[3] = test system: Marine ostracod crustacean luciferase; details: for Biological luminescence (count): luciferase 5 ng/mL
[4] = test system: Marine ostracod crustacean luciferase; remark: listed apart in the source
[5] = biological target: BSA (Bos taurus, UniProt P02769); details: for Luminescence background (count): luciferin 1 μM
[6] = biological target: luciferase of marine ostracod crustacean (Vargula hilgendorfii, UniProt P17554); details: oxidation reaction catalysed by luciferase; background art; cited from earlier work
[7] = 24 hours after addition, room temperature, 100 mM Tris-HCl (pH 7.5)/0.3M NaCl
[8] = 24 hours after addition, room temperature, 100 mM Tris-HCl/0.3M sodium ascorbate
[9] = 100 mM Tris-HCl (pH 7.5)/1% BSA, no antioxidant
[10] = 100 mM Tris-HCl (pH 7.5)/1% BSA/0.3M sodium ascorbate
[11] = 100 mM Tris-HCl (pH 7.5)/1% BSA/0.3M sodium ascorbate/0.02M Na2SO3

The chains behind the UniProt entries cited, without tags or fusion partners. Residues count along the entry.
UniProt P02769, 25-607: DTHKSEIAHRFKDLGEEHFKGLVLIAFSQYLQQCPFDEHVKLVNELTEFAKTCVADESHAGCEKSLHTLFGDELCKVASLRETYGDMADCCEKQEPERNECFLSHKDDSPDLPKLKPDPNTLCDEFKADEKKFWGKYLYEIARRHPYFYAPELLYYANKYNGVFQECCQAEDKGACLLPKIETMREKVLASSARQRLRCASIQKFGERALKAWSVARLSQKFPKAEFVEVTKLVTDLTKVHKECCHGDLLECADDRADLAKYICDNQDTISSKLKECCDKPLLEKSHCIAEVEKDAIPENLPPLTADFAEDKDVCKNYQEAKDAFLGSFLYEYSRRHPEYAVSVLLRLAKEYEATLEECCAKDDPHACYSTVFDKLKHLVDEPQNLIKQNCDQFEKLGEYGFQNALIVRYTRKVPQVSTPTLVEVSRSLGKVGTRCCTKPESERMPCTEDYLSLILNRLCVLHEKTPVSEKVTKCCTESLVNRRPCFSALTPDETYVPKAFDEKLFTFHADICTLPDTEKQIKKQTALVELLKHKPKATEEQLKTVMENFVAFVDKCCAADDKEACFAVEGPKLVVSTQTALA
UniProt P17554, 12-555: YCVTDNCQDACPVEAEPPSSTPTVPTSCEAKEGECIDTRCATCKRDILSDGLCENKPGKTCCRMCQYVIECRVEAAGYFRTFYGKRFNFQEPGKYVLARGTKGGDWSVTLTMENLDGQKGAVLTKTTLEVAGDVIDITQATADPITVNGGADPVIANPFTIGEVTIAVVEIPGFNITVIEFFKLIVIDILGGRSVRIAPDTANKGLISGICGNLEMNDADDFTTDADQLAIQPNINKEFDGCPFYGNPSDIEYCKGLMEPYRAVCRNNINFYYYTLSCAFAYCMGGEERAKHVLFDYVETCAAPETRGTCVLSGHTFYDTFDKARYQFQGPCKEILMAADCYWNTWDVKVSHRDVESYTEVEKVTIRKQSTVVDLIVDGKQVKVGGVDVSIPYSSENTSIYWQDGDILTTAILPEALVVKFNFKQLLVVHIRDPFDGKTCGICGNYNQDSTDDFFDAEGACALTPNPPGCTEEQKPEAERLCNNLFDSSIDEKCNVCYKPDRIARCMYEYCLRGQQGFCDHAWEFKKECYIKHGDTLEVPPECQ

CC[C@H](C)c1nc2c(CCCNC(=N)N)[nH]c(-c3c[nH]c4ccccc34)cn-2c1=O [Compound 11, marine ostracod crustacean luciferin]
activity compared with native luciferin [1]: equivalent to that of native luciferin | Biological luminescence (count) ([2]; 24 hours after addition, room temperature, 100 mM Tris-HCl (pH 7.5)): 212353 count and 227062 count | B/A [2, 7]: 5554 and 4304 | Biological luminescence (count) [2, 7]: 794325 count and 783359 count | B/A [2, 8]: 158607 and 194132 | Biological luminescence (count) [2, 8]: 32355906 count and 30478724 count | improvement of S/N ([2]; buffer system containing sodium ascorbate (Table 1)): at least 16 times | B/A ([2]; immediately after addition, 100 mM Tris-HCl (pH 7.5)): 13565 and 13945 | B/A ([2]; immediately after addition, 100 mM Tris-HCl (pH 7.5)/0.3M NaCl): 7862 and 8128 | Biological luminescence (count) ([2]; immediately after addition, 100 mM Tris-HCl (pH 7.5)/0.3M NaCl, luciferin 1 μM, luciferase 5 ng/mL): 38315442 count and 36058420 count | Biological luminescence (count) ([2]; immediately after addition, 100 mM Tris-HCl (pH 7.5), luciferin 1 μM, luciferase 5 ng/mL, 10 seconds): 35961958 count and 36328201 count | B/A ([2]; immediately after addition, 100 mM Tris-HCl/0.3M sodium ascorbate): 269341 and 224690 | Biological luminescence (count) ([2]; immediately after addition, 100 mM Tris-HCl/0.3M sodium ascorbate, luciferin 1 μM, luciferase 5 ng/mL): 43364001 count and 43814730 count | B/A [3, 9]: 4382 | Biological luminescence (count) [3, 9]: 49159227 count | B/A [3, 10]: 30306 | B/A [3, 11]: 60320 | Biological luminescence (count) [3, 11]: 55916914 count | Biological luminescence (count) [3, 10]: 48187479 count | Luminescence background (count) [7]: 143 count and 182 count | Luminescence background (count) [8]: 204 count and 157 count | Luminescence background (count) (immediately after addition, 100 mM Tris-HCl (pH 7.5)/0.3M NaCl, luciferin 1 μM, 10 seconds): 4873 count and 4436 count | Luminescence background (count) (immediately after addition, 100 mM Tris-HCl (pH 7.5), luciferin 1 μM, 10 seconds): 2651 count and 2605 count | Luminescence background (count) (immediately after addition, 100 mM Tris-HCl/0.3M sodium ascorbate, luciferin 1 μM, 10 seconds): 161 count and 195 count | Biological luminescence after 0 hour (count) ([4]; 100 mM Tris-HCl/0.3M sodium ascorbate/0.02M Na2SO3, luciferin 1 μM, luciferase 5 ng/mL): 49603053 count | Biological luminescence after 24 hour (count) ([4]; left at room temperature for 24 hours, 100 mM Tris-HCl/0.3M sodium ascorbate/0.02M Na2SO3): 49513568 count | Luminescence background (count) [5, 9]: 11216 count | Luminescence background (count) [5, 11]: 927 count | Luminescence background (count) [5, 10]: 1590 count | maximum luminescence wavelength [6]: 460 nm

marine ostracod crustacean luciferin [Compound 11]
stability at room temperature ([2]; 100 mM Tris-HCl buffer (pH 7.5) containing 0.3 M sodium ascorbate, 24 hours): stable at room temperature | improvement of S/N ratio ([3]; 1% BSA, 100 mM Tris-HCl buffer containing 0.3 M sodium ascorbate and 0.02 M Na2SO3): about 14 times | stability at room temperature compared with buffer containing 0.3 M sodium ascorbate alone ([4]; 100 mM Tris-HCl buffer (pH 7.5) containing 0.3 M sodium ascorbate and 0.02 M Na2SO3, 24 hours): further enhanced | reduction of luminescence background due to BSA ([5]; 100 mM Tris-HCl buffer containing 0.3 M sodium ascorbate and 0.02 M Na2SO3): about 10 times
